Values quoted from earlier work, collected in US12186320B2, “Therapeutic agent containing pyrazolo[3,4-d]pyrimidine compound as active ingredient” (TAIHO PHARMACEUTICAL CO., LTD., priority 2018, dated 2025).
Entries after “also recorded” stand apart in the source; their conditions may differ.

What was measured:
[1] = tested on: Champions Tumor Graft models CTG-1171; conditions: cited from earlier work
[2] = tested on: Breast cancer (primary), HER2 +; conditions: single patient; neighbouring lines without a result appear to be partners of the same regimen; cited from earlier work

For Trastuzumab, the “TGI of trastuzumab, judgement in words” value ([1]; Table 8, cells judged to have tolerance/resistance to trastuzumab) is listed as “weak”, the “TGI (%)” value ([1]; single agents, Nab-paclitaxel 0.5 mg/kg/day once a week for 3 weeks i.v., Temsirolimus 0.5 once a week for 5 weeks i.p., Trastuzumab 15 once a week for 8 weeks i.v., Afatinib dose not given) is listed as 26% and the “Result (treatment history before acquiring tumor tissue)” value [2] is listed as “Mixed response; also recorded: No response”.
